Assay results as given in BindingDB's records for US10577360.

By UniProt entry, the sequences of proteins in these tests, tags left out. Residues count along the entry.
UniProt P54289, 957-1103 limits assumed: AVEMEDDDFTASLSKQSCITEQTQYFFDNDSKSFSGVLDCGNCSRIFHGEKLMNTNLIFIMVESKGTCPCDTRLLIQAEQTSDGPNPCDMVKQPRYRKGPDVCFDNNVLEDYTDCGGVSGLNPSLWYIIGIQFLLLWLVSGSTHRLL
UniProt P54289, 25-956 limits assumed: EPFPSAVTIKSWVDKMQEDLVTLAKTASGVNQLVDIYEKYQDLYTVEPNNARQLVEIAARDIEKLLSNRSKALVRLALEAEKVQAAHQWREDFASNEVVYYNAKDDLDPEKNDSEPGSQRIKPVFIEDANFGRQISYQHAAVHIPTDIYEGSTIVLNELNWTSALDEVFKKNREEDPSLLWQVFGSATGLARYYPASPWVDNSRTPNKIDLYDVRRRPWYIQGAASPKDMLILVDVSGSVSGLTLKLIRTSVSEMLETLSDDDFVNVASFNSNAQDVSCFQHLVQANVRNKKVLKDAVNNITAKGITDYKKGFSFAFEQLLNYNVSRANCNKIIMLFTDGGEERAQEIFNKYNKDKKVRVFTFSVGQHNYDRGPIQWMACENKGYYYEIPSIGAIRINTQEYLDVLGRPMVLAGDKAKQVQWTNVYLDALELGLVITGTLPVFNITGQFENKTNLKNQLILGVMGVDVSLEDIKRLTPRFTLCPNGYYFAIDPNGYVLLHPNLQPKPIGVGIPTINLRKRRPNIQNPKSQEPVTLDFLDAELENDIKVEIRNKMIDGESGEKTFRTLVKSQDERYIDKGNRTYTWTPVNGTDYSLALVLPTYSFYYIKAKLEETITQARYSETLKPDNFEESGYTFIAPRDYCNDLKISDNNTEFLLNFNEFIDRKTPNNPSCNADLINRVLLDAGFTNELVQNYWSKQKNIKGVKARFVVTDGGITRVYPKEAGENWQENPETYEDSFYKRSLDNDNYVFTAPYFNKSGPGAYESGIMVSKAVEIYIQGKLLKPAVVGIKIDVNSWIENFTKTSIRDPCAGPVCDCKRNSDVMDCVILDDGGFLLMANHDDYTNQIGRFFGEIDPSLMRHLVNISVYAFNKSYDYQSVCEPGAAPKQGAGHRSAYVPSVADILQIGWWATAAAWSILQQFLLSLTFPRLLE

Target: Voltage-dependent calcium channel subunit alpha-2/delta-1 (Homo sapiens, UniProt P54289)

With `O=C(c1cccs1)N(c1ccn(-c2ccccc2)n1)C1CCNCC1` the Ki was 300 nM.
